Sequences of proteins named here, by UniProt entry; tags and fusion partners are left off. A change or cut given only in a name is not applied to a line headed by its entry.
UniProt P52699: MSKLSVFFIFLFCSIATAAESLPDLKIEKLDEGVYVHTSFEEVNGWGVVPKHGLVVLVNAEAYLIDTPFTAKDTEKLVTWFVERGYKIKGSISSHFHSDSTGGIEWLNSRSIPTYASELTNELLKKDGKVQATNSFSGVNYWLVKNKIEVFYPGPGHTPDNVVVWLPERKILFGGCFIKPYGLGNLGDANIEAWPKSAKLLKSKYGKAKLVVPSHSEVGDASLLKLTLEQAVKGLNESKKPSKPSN

The first test concerns the target IMP-1 (Serratia marcescens, UniProt P52699).
Experiment: not given
In kind it is biochemical. The conditions noted are these: IMP-1 enzyme, CCF2-FA fluorescence assay.
`COC(=O)c1ccc(-c2nn[nH]n2)c(S(N)(=O)=O)c1` [Example 255, Methyl 3-sulfamoyl-4-(2H-tetrazol-5-yl)benzoate] displayed a half-inhibitory concentration (IC50) of 20000 nM.

The same test, now with this note: fluorescence assay with CCF2-FA substrate.
In the case of `NS(=O)(=O)c1cccc(-c2ccnc(CO)c2)c1-c1nn[nH]n1` [Example 92, 3-[2-(hydroxymethyl)pyridin-4-yl]-2-(2H-tetrazol-5-yl)benzenesulfonamide], the IC50 came to 2530 nM.

For a further test, the target named is VIM-1 (Pseudomonas aeruginosa (strain ATCC 15692 / DSM 22644 / CIP 104116 / JCM 14847 / LMG 12228 / 1C / PRS 101 / PAO1), UniProt A0A0F7KYQ8). In words: Enzyme activity: determination of IC50, fluorescence assay with CCF2-FA substrate (VIM-1). The conditions noted are these: VIM-1 IC50, VIM-1 enzyme, CCF2-FA fluorescence assay. Type of test: biochemical.
Turning to `CC(C(=O)O)N(C)Cc1ccc(-c2cccc(S(N)(=O)=O)c2-c2nnn[nH]2)cc1` (stereo not drawn) [Example 367, N-methyl-N-{[3′-sulfamoyl-2′-(1H-tetrazol-5-yl)biphenyl-4-yl]methyl}alanine], half-maximal inhibition (IC50) was put at 1000 nM.

Compound `Nc1ncc(-c2cccc(S(N)(=O)=O)c2-c2nn[nH]n2)cc1F` [Example 314, 3-(6-amino-5-fluoropyridin-3-yl)-2-(2H-tetrazol-5-yl)benzenesulfonamide] came in with an IC50 of 26.9 nM.

`CN1C2CCC1CC(NCc1ccc(-c3cccc(S(N)(=O)=O)c3-c3nnn[nH]3)cc1)C2` (stereo not drawn) [Example 370, 4′-{[(8-methyl-8-azabicyclo[3.2.1]oct-3-yl)amino]methyl}-2-(1H-tetrazol-5-yl)biphenyl-3-sulfonamide] came in with an IC50 of 624 nM.

In turn, `COC(=O)c1ccc(-c2nn[nH]n2)c(S(N)(=O)=O)c1` [Example 255, Methyl 3-sulfamoyl-4-(2H-tetrazol-5-yl)benzoate] had an IC50 of 20000 nM.

`NS(=O)(=O)c1ccc2ccccc2c1-c1nnn[nH]1` [Example 399, 1-(1H-tetrazol-5-yl)naphthalene-2-sulfonamide] came in with an IC50 of 12400 nM.

For `NS(=O)(=O)c1cccc(-c2nc(-c3ccncc3)cs2)c1-c1nnn[nH]1` [Example 407, 3-[4-(4-pyridyl)thiazol-2-yl]-2-(1H-tetrazol-5-yl)benzenesulfonamide], half-maximal inhibition (IC50) was put at 133 nM.

In the case of `NS(=O)(=O)c1cccc(-c2cnc3[nH]ncc3c2)c1-c1nn[nH]n1` [Example 309, 3-(1H-pyrazolo[3,4-b]pyridin-5-yl)-2-(2H-tetrazol-5-yl)benzenesulfonamide], 31.5 nM corresponded to half-maximal inhibition (IC50).

Compound `NS(=O)(=O)c1c(C(F)(F)F)ccc(-c2ccc3nccn3c2)c1-c1nnn[nH]1` [Example 481, 3-imidazo[1,2-a]pyridin-6-yl-2-(1H-tetrazol-5-yl)-6-(trifluoromethyl)benzenesulfonamide] gave an IC50 of 0.42 nM.

The test is the same for the next values; noted with them: VIM-1 IC50, VIM-1 enzyme, CCF2-FA substrate.
Compound `NS(=O)(=O)c1cccc(-c2ccc(NC3CCNC3)nc2)c1-c1nnn[nH]1` (stereo not drawn) [Example 628, 3-[6-(pyrrolidin-3-ylamino)-3-pyridyl]-2-(1H-tetrazol-5-yl)benzenesulfonamide] returned an IC50 of 164 nM.

The compound `NS(=O)(=O)c1c(C(F)(F)F)ccc(C2CCC2)c1-c1nnn[nH]1` [Example 492, 3-cyclobutyl-2-(1H-tetrazol-5-yl)-6-(trifluoromethyl)benzenesulfonamide] had an IC50 of 12.3 nM.

`NS(=O)(=O)c1c(C(F)(F)F)ccc(N2CCN3C(=O)OCC3C2)c1-c1nnn[nH]1` (stereo not drawn) [Example 667, 3-(3-oxotetrahydro[1,3]oxazolo[3,4-a]pyrazin-7(1H)-yl)-2-(1H-tetrazol-5-yl)-6-(trifluoromethyl)benzenesulfonamide]: the IC50 came out at 1.48 nM.

`NCCNc1ccc(-c2cccc(S(N)(=O)=O)c2-c2nnn[nH]2)cn1` [Example 634, 3-[6-(2-aminoethylamino)-3-pyridyl]-2-(1H-tetrazol-5-yl)benzenesulfonamide] showed an IC50 of 163 nM.

Turning to `NS(=O)(=O)c1c(CC2CCNCC2)ccc(-c2ccc(C3CCNC3)cc2)c1-c1nn[nH]n1` (stereo not drawn) [Example 588, 4-(piperidin-4-ylmethyl)-4′-(pyrrolidin-3-yl)-2-(2H-tetrazol-5-yl)-[1,1′-biphenyl]-3-sulfonamide], the half-inhibitory concentration (IC50) was determined as 2.61 nM.

`Nc1nc2cncc(-c3ccc(C(F)(F)F)c(S(N)(=O)=O)c3-c3nnn[nH]3)c2[nH]1` [Example 571, 3-(2-amino-1H-imidazo[4,5-c]pyridin-7-yl)-2-(1H-tetrazol-5-yl)-6-(trifluoromethyl)benzenesulfonamide] gave a concentration for half-maximal inhibition (IC50) of 5.06 nM.

Turning to `NS(=O)(=O)c1c(C(F)(F)F)ccc([C@H]2CC[C@H](NC3CC[C@H]4NCC[C@@H]34)CC2)c1-c1nnn[nH]1` (stereo partly drawn) [Example 692, 3-{4-[(3aR,6aR)-octahydrocyclopenta[b]pyrrol-4-ylamino]cyclohexyl}-2-(1H-tetrazol-5-yl)-6-(trifluoromethyl)benzene sulfonamide], the IC50 was determined as 12.7 nM.

The test is the same for the next values; noted with them: VIM-1 IC50, fluorescence assay with CCF2-FA substrate.
`NC1CCN(C2CCN(c3ccc(C(F)(F)F)c(S(N)(=O)=O)c3-c3nnn[nH]3)CC2)C1` (stereo not drawn) [Example 768, 3-[4-(3-aminopyrrolidin-1-yl)piperidin-1-yl]-2-(1H-tetrazol-5-yl)-6-(trifluoromethyl) benzenesulfonamide]: the IC50 is 0.906 nM.

The compound `CN1CCN(c2cc(-c3cccc(S(N)(=O)=O)c3-c3nnn[nH]3)ccn2)CC1` [Example 116, 3-(2-(4-methylpiperazin-1-yl)pyridin-4-yl)-2-(1H-tetrazol-5-yl)benzenesulfonamide] displayed an IC50 of 1240 nM.

For `NC1CCCC1N1CCC(c2ccc(-c3ccc(C(F)(F)F)c(S(N)(=O)=O)c3-c3nnn[nH]3)cc2)CC1` (stereo not drawn) [Example 791, 4′-[1-(2-aminocyclopentyl)piperidin-4-yl]-2-(1H-tetrazol-5-yl)-4-(trifluoromethyl)biphenyl-3-sulfonamide], the midpoint of inhibition, the IC50, lay at 11.1 nM.

On to `Cn1cncc1-c1cccc(S(N)(=O)=O)c1-c1nn[nH]n1` [Example 43, 3-(1-methyl-1H-imidazol-5-yl)-2-(2H-tetrazol-5-yl)benzenesulfonamide], for which half-maximal inhibition (IC50) required 2460 nM.

`Cn1ccnc1-c1cccc(S(N)(=O)=O)c1-c1nn[nH]n1` [Example 38, 3-(1-methyl-1H-imidazol-2-yl)-2-(2H-tetrazol-5-yl)benzenesulfonamide] had an IC50 of 5540 nM.

With `NS(=O)(=O)c1nccc(-c2ccc(C(=O)NC3CCOCC3)cc2)c1-c1nnn[nH]1` [Example 186, 4-(2-Sulfamoyl-3-(1H-tetrazol-5-yl)pyridin-4-yl)-N-(tetrahydro-2H-pyran-4-yl)benzamide], inhibition was half-maximal at 1860 nM (IC50).

`NS(=O)(=O)c1nccc(NCc2ccccc2)c1-c1nnn[nH]1` [Example 235, 4-(benzylamino)-3-(1H-tetrazol-5-yl)pyridine-2-sulfonamide] displayed an IC50 of 1730 nM.

For the compound `NS(=O)(=O)c1cccc(CCc2cccnc2)c1-c1nnn[nH]1` [Example 143, 3-(2-pyridin-3-ylethyl)-2-(1H-tetrazol-5-yl)benzenesulfonamide], the IC50 was determined as 380 nM.

In the case of `NS(=O)(=O)c1cccc(-c2ccc(OCCN3CCCCC3)cc2)c1-c1nn[nH]n1` [Example 89, 4′-(2-piperidin-1-ylethoxy)-2-(2H-tetrazol-5-yl)biphen-3-sulfonamide], the IC50 came to 1020 nM.

`NC1CCC(N2CC(c3ccc(-c4ccc(C(F)(F)F)c(S(N)(=O)=O)c4-c4nnn[nH]4)cc3)C2)CC1` (stereo not drawn) [Example 809, 4′-[1-(4-aminocyclohexyl)azetidin-3-yl]-2-(1H-tetrazol-5-yl)-4-(trifluoromethyl)biphenyl-3-sulfonamide] had an IC50 of 27.9 nM.

`NS(=O)(=O)c1c(C(F)(F)F)ccc(-c2ccc(C3CN(CC4CCNCC4)C3)cc2)c1-c1nnn[nH]1` [Example 804, 4′-[1-(piperidin-4-ylmethyl)azetidin-3-yl]-2-(1H-tetrazol-5-yl)-4-(trifluoromethyl)biphenyl-3-sulfonamide] came in with an IC50 of 8.72 nM.

`NS(=O)(=O)c1cccc(-c2csc(CN3CCOCC3)c2)c1-c1nn[nH]n1` [Example 103, 3-[5-(morpholin-4-ylmethyl)thiophen-3-yl]-2-(2H-tetrazol-5-yl)benzenesulfonamide] returned an IC50 of 2640 nM.

Consider `NS(=O)(=O)c1nccc(-c2cccnc2)c1-c1nnn[nH]1` [Example 193, 3′-(1H-tetrazol-5-yl)-[3,4′-bipyridine]-2′-sulfonamide], for which the IC50 came out at 813 nM.

`NS(=O)(=O)c1cccc(-c2ncccn2)c1-c1nn[nH]n1` [Example 39, 3-pyrimidin-2-yl-2-(2H-tetrazol-5-yl)benzenesulfonamide] gave an IC50 of 8140 nM.

`NC1CCCC(N2CCC(c3ccc(-c4ccc(C(F)(F)F)c(S(N)(=O)=O)c4-c4nnn[nH]4)cc3)CC2)C1` (stereo not drawn) [Example 798, 4′-[1-(3-aminocyclohexyl)piperidin-4-yl]-2-(1H-tetrazol-5-yl)-4-(trifluoromethyl)biphenyl-3-sulfonamide] came in with an IC50 of 13.3 nM.

Consider `NS(=O)(=O)c1cccc(-c2ccc3nonc3c2)c1-c1nnn[nH]1` [Example 130, 3-(benzo[c][1,2,5]oxadiazol-5-yl)-2-(1H-tetrazol-5-yl)benzenesulfonamide], for which half-maximal inhibition (IC50) was put at 41.8 nM.

For the compound `CN(C(=O)c1ccc(-c2cccc(S(N)(=O)=O)c2-c2nn[nH]n2)cc1)C1CCOCC1` [Example 77, N-methyl-3′-sulfamoyl-N-(tetrahydro-2H-pyran-4-yl)-2′-(2H-tetrazol-5-yl)biphenyl-4-carboxamide], the IC50 was found to be 2900 nM.

Consider `NS(=O)(=O)c1cccc(C#CCN2CCC(=O)CC2)c1-c1nn[nH]n1` [Example 146, 3-[3-(4-oxopiperidin-1-yl)prop-1-yn-1-yl]-2-(2H-tetrazol-5-yl)benzenesulfonamide], for which the half-maximal inhibitory concentration (IC50) was 2800 nM.

In the case of `CCOC(=O)CCn1cc(-c2cccc(S(N)(=O)=O)c2-c2nn[nH]n2)cn1` [Example 110, ethyl 3-{4-[3-sulfamoyl-2-(2H-tetrazol-5-yl)phenyl]-1H-pyrazol-1-yl}propanoate], the IC50 came out at 1360 nM.

In the case of `CN(C)c1ccc(-c2ccnc(S(N)(=O)=O)c2-c2nn[nH]n2)cn1` [Example 211, 6-(dimethylamino)-3′-(2H-tetrazol-5-yl)-[3,4′-bipyridine]-2′-sulfonamide], 242 nM corresponded to half-maximal inhibition (IC50).

Regarding `NS(=O)(=O)c1cccc(C2=CCS(=O)(=O)CC2)c1-c1nnn[nH]1` [Example 141, 3-(1,1-dioxido-3,6-dihydro-2H-thiopyran-4-yl)-2-(1H-tetrazol-5-yl)benzenesulfonamide], inhibition was half-maximal at 2580 nM (IC50).

On to `NS(=O)(=O)c1cccc(-c2nccs2)c1-c1nn[nH]n1` [Example 35, 2-(2H-tetrazol-5-yl)-3-(1,3-thiazol-2-yl)benzenesulfonamide], for which the IC50 is 1010 nM.

A word on the IC50: it is the concentration that inhibits the measured activity by half. Low values mean greater potency, high ones weaker potency.

(Values after patent publication US9708336B2, “Metallo-beta-lactamase inhibitors” (priority 2014, dated 2017).)
